Test results: patent US10258635B2, “Formulations and compositions of vitamin D analogs for treating and preventing cancer and other diseases” (priority 2013, dated 2019)

System: Normal prostate WPMY cells
Assay: Viability testing by MTT reduction in normal prostate cells
Format: cell-based
Details: 24 hours; AMPI-107 1 and 10 μM, Calcitrol 1 μM
Experimental: MTT is reduced in metabolically active cells, in part by the action of dehydrogenase enzymes, to generate reducing equivalents such as NADH and NADPH. The resulting intracellular purple formazan can be solubilized and quantified by spectrophotometry. After 5 minutes at room temperature, absorbances in plates were measured using a plate analyzer set for in dual wavelength comparisons at wavelength of 540 nm with a reference wavelength of 620 nm.

## Vitamin D3-3-epoxide [AMPI-107]
  cell metabolism (MTT reduction): did not significantly depress cell metabolism
